Laboratory results taken from doi:10.1101/2023.06.06.543836.

Amino acid sequences for entries named in this document (tags omitted). A change or cut given only in a name is not applied to a line headed by its entry. Residues count along the entry.
UniProt P63158: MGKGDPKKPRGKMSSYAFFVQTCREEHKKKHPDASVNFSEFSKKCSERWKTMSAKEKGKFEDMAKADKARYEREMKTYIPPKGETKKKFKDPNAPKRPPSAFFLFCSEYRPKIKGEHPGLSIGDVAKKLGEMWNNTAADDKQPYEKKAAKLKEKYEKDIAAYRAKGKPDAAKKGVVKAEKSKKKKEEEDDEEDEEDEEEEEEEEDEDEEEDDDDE
UniProt P48061, 22-89: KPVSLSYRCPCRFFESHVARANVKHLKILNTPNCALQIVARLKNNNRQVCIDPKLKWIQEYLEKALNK

Target: Ac-pep with a tyrosine added at the N-terminus (ITC form) (UniProt P63158)
Test: ITC

CXCL12 (chemokine (C-X-C motif) ligand 12) (from UniProt P48061 22-89) (natural protein)
Kd1 (apparent, two-site model): 0.6 µM
Kd2 (apparent, two-site model): 0.1 µM
